# Where two headings read alike, the source gives them in different places.
# Tests used:
# [1] = system: reserpine-treated mice; experiment: Open-field locomotor activity in reserpine-treated mice; details: mouse, in vivo
# Protocol: (§1) Dopamine depletion and behaviour. Reserpine was administered i.p. at a concentration of 1 or 5 mgkg^−1, and electrophysiological and behavioural experiments were performed 18-24 h after injections. 6-Hydroxydopamine was injected bilaterally into the median forebrain bundle at a concentration of 5 μg μl^−1 to a total volume of 2 μL per side, and experiments were performed 48-60 h after injections. Catalepsy was measured with the bar test. Descent latency represents the time in seconds required for the mouse either to remove both paws from a bar (diameter 2 mm) placed 4 cm above the ground, or for one paw to touch the ground. Horizontal locomotor activity was measured in 15-min blocks with the ENV-510 test chamber and Activity Monitor software. Animals were tested 45-60 min after drug administration. All procedures involving animals were approved by the Institutional Animal Care and Use Committee.
# Reserpine treatment. To study the effects of dopamine depletion, reserpine (Sigma-Aldrich) was dissolved in 1% glacial acetic acid at a concentration of 2.5 mg/mL. […]
# (§2) To test catalepsy, a horizontal bar (2 mm diameter) was placed 4 cm above the ground. […] Descent latency was measured as the delay to when either both paws were removed from the bar or one paw touched the ground. […]
# [2] = system: 6-OHDA-treated mice; details: mouse, in vivo
# Protocol: as §1
# 6-hydroxydopamine treatment Bilateral lesions of the substantia nigra pars compacta were achieved by injecting 6-OHDA Bromide (Sigma-Aldrich) into the right and left medial forebrain bundles. […]
# as §2
# [3] = system: indirect-pathway MSN synapses; format: cell-based, mouse
# [4] = system: indirect-pathway MSN synapses; experiment: LTD induced by tetanic stimulation in striatal slices from reserpine-treated mice; format: cell-based, mouse
# [5] = system: indirect-pathway synapses; experiment: DHPG-elicited depression of EPSCs (eCB-LTD), indirect pathway; format: cell-based, mouse
compound,measurement,setting,value
CCCN1CCC[C@@H]2Cc3n[nH]cc3C[C@H]21 [quinpirole],"Distance traveled in 15 min, open field",[1],105±47 cm
same,"Distance traveled in 15 min, open field",[2],385±129 cm
same,"EPSC after LTD induction, % of baseline at 30-40 min",[3],65±8 % of baseline
same,"EPSC after LTD induction, % of baseline at 30-40 min",[4],81±9 % of baseline
same,"EPSC, % of baseline at 20-30 min after brief DHPG application",[5],73±8 % of baseline

# Source: patent US20080176963A1, “TREATMENT OF BRAIN DISORDERS OF THE STRIATUM” (priority 2007, published 2008)
